From PubChem
INS-1E GSIS act – GLuc luminescence reporter in INS-1E cells, primary screen for activators of glucose-dependent secretion of insulin. INS-1E GLuc reporter insulin secretion, 2-3 h. activation, % at 16.6 µM. actives 0.61% (n = 370,000);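 active = lowest replicate activation of at least 40%, so every replicate reaches that level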;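 also: 0% = median of neutral control wells and 100% = median of IBMX positive control wells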
ERp5 inh – ERp5 (human) disulfide isomerase inhibition. Q15084. ERp5 insulin aggregation, absorbance 650 nm, 90 min. inhibition, % at 9.99 µM. actives 0.05% (n = 350,000);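 active = mean replicate inhibition above about 25%, with every replicate also reaching it, limit read from the data, passing the limit was not always enough; inconclusive = only one of those two criteria met; inactive = neither criterion met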
SMARCA2 activ – activators of SMARCA2 function; actives 1% (n = 370,000); MG213 cells, MMTV-luciferase reporter, dexamethasone, overnight; activation, % at 9.1 µM; in the data active = activation above about 7.8%;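 also: 0% = vehicle wells and 100% = reference activator wells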
UUG fidelity – modulators of start codon recognition fidelity in yeast; AID 602363; activity score, % at 18.7 µM; S. cerevisiae UUG-firefly luciferase reporter, luminescence/redox ratio; actives 0.13% (n = 350,000);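 active = replicate mean at a twofold rise or more, about +100% in these data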;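 note: firefly luciferase made from a UUG start codon reports start codon fidelity; reporter light over untreated wells divided by growth signal over untreated wells; some hits fall short of that in this replicate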
Rev-erbA mod – modulates human Rev-erb alpha binding to DNA. actives 0.79% (n = 370,000). Rev-erbα–FITC-DNA binding, fluorescence polarization, 90 min. activity, % at 10 µM;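 active = activity above about 14%, limit read from the data; passing the limit was not always enough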;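 also: 0% = DMSO wells with 35 nM protein and 100% = DMSO wells with 750 nM protein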
PDI turbidity – blocks human protein disulfide isomerase activity. actives 0.052% (n = 350,000). AID 588391. P07237. inhibition, % at 10 µM. PDI insulin aggregation turbidity, A650, 90 min;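 active = mean inhibition across replicates of 30% or more, whatever share of single replicates reach that level; inconclusive = mean inhibition below 30% while every single replicate reaches 30%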
SMARCA2 conf – confirmation of SMARCA2 (BRM) function activators | shares compounds with SMARCA2 activ | MG213 cells, MMTV-luciferase with dexamethasone, luminescence, overnight; MG213 cells expressing E1A, Rb sequestered; DMSO wells 0%, reference activator 100% | activation, % at 9.1 µM | actives 30% (n = 3,500);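 active = activation above its plate's cutoff, the mean activation of tested wells plus 3 SD, cut at about 7.9% in these data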
VP16 Luc act – counter-screen for SMARCA2 activators: GAL4-VP16 luciferase reporter activation; activation, % at 9.1 µM; HEK293 GAL4-VP16 pG5luc reporter, luciferase luminescence; scaled: DMSO wells 0%, SAHA wells 100%; actives 41% (n = 3,500); shares compounds with SMARCA2 activ;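 active = activation above the solvent-only control well mean plus 3 SD, averaged across control plates, cut at about 5.2% in these data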
* marks the source's active call; other numbers are inactive results; ? = inconclusive; . = no result given. Rows were chosen to be rich in hits. Some 2.1% of all compounds tested hit in one or more screens of this group.

| mol | SMARCA2 conf | PDI turbidity | SMARCA2 activ | Rev-erbA mod | VP16 Luc act | INS-1E GSIS act | UUG fidelity | ERp5 inh |
| --- | --- | --- | --- | --- | --- | --- | --- | --- |
| C[C@@H]1CCCCO[C@H](CN(C)C(=O)C2CCCCC2)[C@H](C)CN([C@H](C)CO)C(=O)c2cc(NS(=O)(=O)c3ccc(F)cc3)ccc2O1 | . | . | . | . | . | -43 | 12 | 1 |
| CN(C)CCCNc1c2c(nc3cc(-c4cccc(F)c4)nn13)CCC2 | . | -4 | 2 | -3 | . | 1 | -12 | 3 |
| Cc1nc2cc(-c3ccc(Cl)cc3)nn2c(NCCN(C)C)c1C | 19* | 1 | 9.9* | -4 | 7.9* | 14 | . | 2 |
| O=c1c2ccccc2sc2ccccc12 | 7 | 10 | 8.5* | 8 | 5.9* | -1 | -15 | 7 |
| O=C(Nc1cc(Cl)cc(Cl)c1)c1cnn2cccnc12 | . | -5 | 1 | -9 | . | . | . | . |
| O=C(Nc1cccc(Cl)c1)c1cnn2cccnc12 | 8.3* | -4 | 8.1* | -3 | 12* | 58* | -20 | . |
| CC1OC(OC2C(Oc3c(-c4ccc(O)cc4)oc4cc(O)cc(O)c4c3=O)OC(COC3O[C@@H](C)[C@H](O)[C@@H](O)C3O)C(O)C2O)C(O)C(O)C1O (stereo partly drawn) | . | . | -1 | 0 | . | 15 | 4 | 0 |
| C[C@@H]1O[C@@H](OC[C@H]2O[C@@H](Oc3c(-c4ccc(O)c(O)c4)oc4cc(O)cc(O)c4c3=O)[C@H](O)[C@@H](O)[C@@H]2O)[C@H](O)[C@H](O)[C@H]1O | 0 | 58* | 8.2* | 4 | 2 | 12 | 14 | 1 |
| CC1(C(=O)NS(=O)(=O)Cc2ccccc2)CCN1C(=O)Cc1ccc(-c2ccccc2)cc1 (stereo not drawn) | -5 | 5 | 8.3* | -1 | 0 | 29 | 3 | 0 |
| COc1cc2c(cc1NC(=O)c1ccccc1F)CCCC2 | 4 | 3 | 9.3* | -2 | 7.6* | -6 | . | . |
| COc1cc(OC)c(NC(=O)c2ccccc2F)cc1Cl | . | -3 | 7 | 15 | . | 11 | -14 | 3 |
| COc1cccc(-c2nn3c(-c4ccccn4)nnc3s2)c1 | 3 | -1 | 8.7* | 5 | 1 | . | -20 | . |
| Cc1cccc(S(=O)(=O)N[C@H]2CC[C@H](CCNC(=O)c3cnccn3)O[C@@H]2CO)c1 | . | . | . | . | . | 12 | . | -7 |
| COC(=O)C(Cc1ccc(O)cc1)N1Cc2ccccc2C1=O (stereo not drawn) | 6 | ? | 9.1* | 4 | 9.3* | 18 | -1 | 1 |
| C/C(=N\NC(=O)c1cccs1)c1cccnc1 | 0 | 1 | 8.4* | 1 | 1 | 2 | . | 5 |
| C/C(=N\NC(=O)c1ccc(O)cc1O)c1cccnc1 | 3 | -5 | 10* | -3 | 3 | 4 | -8 | 0 |
| NCC[C@H]1CC[C@H](NC(=O)C2CCCC2)[C@@H](CO)O1 | . | . | . | . | . | -7 | -10 | -5 |
| CC(=O)Nc1cc(C)c(S(C)(=O)=O)c(C)c1 | -2 | -3 | 8.1* | 1 | 2 | 16 | . | . |
| CC(=O)Nc1ccc(OS(=O)(=O)c2c(C)cc(C)cc2C)cc1 | . | -8 | -2 | 3 | . | 1 | 1 | 7 |
| CCCN(C)C[C@@H]1Oc2cc(C#Cc3ccc(OC)cc3)ccc2S(=O)(=O)N([C@@H](C)CO)C[C@@H]1C | . | . | . | . | . | 1 | -9 | 2 |
| Cc1nnc(N/N=C\c2ccc(-c3cccc(C(=O)O)c3)o2)n1N | 3 | 2 | 9.1* | -1 | 0 | 2 | . | 0 |
| Cc1nnc(N/N=C/c2ccc(-c3ccc(Br)cc3)o2)n1N | . | 0 | 1 | 1 | . | -5 | . | -2 |
| C[C@@H]1CN([C@@H](C)CO)C(=O)Cc2cc(NS(C)(=O)=O)ccc2O[C@@H]1CN(C)Cc1ccccc1 | . | . | . | . | . | 14 | -4 | 1 |
| O=C(C[C@H]1C[C@H]2c3cc(NC(=O)C4CCC4)ccc3O[C@H]2[C@H](CO)O1)NCc1cccc(F)c1 | . | . | . | . | . | 7 | . | -7 |
| Cc1ccc(Nc2nc(COC(=O)COc3ccc(C=O)cc3)cs2)cc1 | 8.1* | -3 | 9.8* | 3 | 9.0* | -18 | -14 | . |

Arranged by value in PDI turbidity (rising): 3 from the list above.
structure	SMARCA2 conf	PDI turbidity	SMARCA2 activ	Rev-erbA mod	INS-1E GSIS act	UUG fidelity	ERp5 inh
CC(=O)Nc1ccc(OS(=O)(=O)c2c(C)cc(C)cc2C)cc1	.	-8	-2	3	1	1	7
CC(=O)Nc1cc(C)c(S(C)(=O)=O)c(C)c1	-2	-3	8.1*	1	16	.	.
CC1(C(=O)NS(=O)(=O)Cc2ccccc2)CCN1C(=O)Cc1ccc(-c2ccccc2)cc1 (stereo not drawn)	-5	5	8.3*	-1	29	3	0
